Screens as filed in PubChem BioAssay.
The list is not random: actives were taken first. Their share in the collection is about 13%.
miR-21 FLuc: raises the signal of a miR-21 reporter; HeLa miR-21 FLuc reporter, luciferase, 48 h; Potency, µM (highest dose often 38.3 µM), inactives show at the highest dose reporter change, positive = more light; 340,000 tested, under 10 active; active = well fitted rising curve with a large enough effect; inconclusive = small, poorly fitted or top-dose-only effect; inactive = no such curve, though single readings can be large or run the other way;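 note: % of control where 0% means no effect; miR-21 action dims this reporter so a rising signal means less miR-21 action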
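HeLa cells stably expressing CMV-driven firefly luciferase with a downstream miR-21 binding sequence, endogenously expressing miR-21, were treated with titrations (up to about 40uM final) for 48 hours at 37 degree Celsius. Luciferase luminescence was read after lysis.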
G9a block: G9a (human) methyltransferase inhibition; Q96KQ7; G9a H3K9 monomethylation, AlphaScreen, 2 h; Potency, µM (top dose mostly 102 µM), for the others: at the highest dose activity, negative = inhibition, usual class: inhibitors; 8.8% of 350,000 active; AID 504332; note: potency is the fitted concentration of half-maximal effect; % is set by controls: 0 for no effect and ±100 for the full control effect; nearly all actives have a fitted effect of over 75% in size
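G9a (20 nM) was preincubated 15 min with compound, then reacted 2 h at room temperature with 500 nM biotin-H3K9 peptide and 20 µM SAM. Monomethyl-H3K9 detected by AlphaScreen using anti-H3K9me1 antibody.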
Sfp inh: inhibitors of Bacillus subtilis Sfp phosphopantetheinyl transferase. Q9F4F7. Biochemical Sfp PPTase activity, qHTS. Potency, µM, for the others: max response, negative = inhibition, most hits filed as inhibitors. actives 3.5% (n = 310,000). AID 1490; active means well fitted inhibition curve with a large enough effect; inconclusive means small, poorly fitted or top-dose-only effect, or another doubt; inactive means no such curve, though single readings can be large or run the other way;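 further: the enzyme is Sfp with the accession as filed and its product quenches rhodamine fluorescence; potency means the concentration at half of the fitted maximal effect; 0% = enzyme reaction without inhibitor and -100% = no enzyme wells; top concentration of the series not given in the record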
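Fluorescence-quenching assay: 15 nM Sfp-PPTase preincubated 15 min at room temperature with compound, then 5 uM rhodamine-CoA and 12.5 uM BHQ-2-labelled YbbR peptide added. Fluorescence (ex 525/em 598 nm) read at start and after 30 min; difference gives rate.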
LMNA splice mod: changes lamin A minigene splicing in HeLa cells | HeLa LMNA splicing GFP/RFP minigene ratio, 48 h | Potency, µM (highest dose often 46.1 µM), inactives show at the top dose ratio change, negative = inhibition, actives largely listed as inhibitors | 0.01% of 200,000 active | AID 1487; active = well fitted inhibition curve with a large enough effect in the signal ratio, with a control signal flat, not every such curve was filed as active; inconclusive = small, poorly fitted or top-dose-only effect, or effect the other way, or a change in a side signal; the % refers to the signal ratio; note: potency is the fitted concentration of half-maximal effect; % is set by controls: 0 for no effect and ±100 for the full control effect
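S3 HeLa stable clones carrying a lamin A-EGFP splicing minigene plus DsRed2 were seeded at 600 cells/well in Opti-MEM with 2% FBS, pin-dosed and incubated 48 h at 37°C. Acumen cytometry (488 nm) gave the GFP/RFP total-intensity ratio.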
ALDH1A1 inh: ALDH1A1 (human) enzyme inhibition. 7.3% of 220,000 active. Purified ALDH1A1, NADH fluorescence, propionaldehyde substrate. P00352. Potency, µM (top dose mostly 75.3 µM), without a hit: at the top dose activity, negative = inhibition, most hits filed as inhibitors; active = well fitted inhibition curve with a large enough effect, not every such curve was filed as active; inconclusive = small, poorly fitted or top-dose-only effect, or another doubt; inactive = no such curve, though single readings can be large or run the other way;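 note: potency is the fitted concentration of half-maximal effect; plate controls were no enzyme wells and a reference inhibitor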
KDM4E inh: JMJD2E (human) inhibition; B2RXH2; JMJD2E catalytic domain, FDH-coupled NADH fluorescence (FDH is formaldehyde dehydrogenase); Potency, µM (series often up to 57.1 µM), without a hit: at the top dose activity change, negative = inhibition, actives largely listed as inhibitors; 1.6% of 230,000 active; active = well fitted inhibition curve with a large enough effect, not every such curve was filed as active; inconclusive = small, poorly fitted or top-dose-only effect, or another doubt; inactive = no such curve, though single readings can be large or run the other way;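 note: potency is the fitted concentration of half-maximal effect; 0% = wells with enzyme and -100% = buffer wells without enzyme; nearly all actives have a fitted effect of over 50% in size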
Active calls of the source: *; ? = inconclusive; / = not tested or not shown; [ ] = remark or other dose. Unless noted, calls come from the whole dose curve; as a rule, active = well fitted curve in the direction sought with a large enough effect; inconclusive = small, poorly fitted or top-dose-only effect, or another doubt; inactive = no such curve, though single readings can be large; an effect the other way counts as inactive or inconclusive.

Short forms: A = miR-21 FLuc; B = G9a block; C = Sfp inh; D = LMNA splice mod; E = ALDH1A1 inh; F = KDM4E inh
COc1ccccc1CN(CC(=O)NCC1CCCO1)C(=O)CNS(=O)(=O)c1ccc(C)cc1 (stereo not drawn)
  A: -3% | B: -4%[12.7 µM] | C: 10% | D: -6% | E: 13µM* | F: 6%

COc1ccccc1CNC(=O)CNCC1CCCO1 (stereo not drawn)
  A: -3% | B: 10µM* | C: ? | D: -1% | E: ? | F: ?

Cc1ccc(S(=O)(=O)NCC(=O)N(CC(=O)NCC2CCCO2)CC2CCCO2)cc1 (stereo not drawn)
  A: 4% | B: / | C: 1% | D: / | E: -5% | F: -3%

CO[C@]1(C)C[C@H]2O[C@]1(C)n1c3ccccc3c3c4c(c5c6ccccc6n2c5c31)C(=O)N(C)C4
  A: / | B: / | C: -10% | D: / | E: / | F: /

CCC(=O)N(Cc1ccco1)c1nc(C(=O)Nc2ccc(Cl)cc2)c(C)s1
  A: -24% | B: ? | C: 20µM* | D: ? | E: 22µM* | F: ?

C/C(=N\Nc1ccc(Cl)c(C(=O)O)c1)c1cccc([N+](=O)[O-])c1
  A: -82% | B: 16µM* | C: -3% | D: / | E: / | F: -3%

C/C(=N\Nc1nnc(-c2ccccc2)c(-c2ccccc2)n1)c1cccc([N+](=O)[O-])c1
  A: -6% | B: 27%[59 µM] | C: 50µM* | D: ? | E: ? | F: -18%

COCC(C)N1CCC(n2nccc2NC(=O)CCCc2ccccc2)CC1 (stereo not drawn)
  A: -6% | B: / | C: 0% | D: / | E: / | F: /

A second format for some results above.
| structure | miR-21 FLuc | G9a block | Sfp inh | LMNA splice mod | ALDH1A1 inh | KDM4E inh |
| --- | --- | --- | --- | --- | --- | --- |
| COCC(C)N1CCC(n2nccc2NC(=O)CCCc2ccccc2)CC1 (stereo not drawn) | -6% | / | 0% | / | / | / |
| COc1ccccc1CN(CC(=O)NCC1CCCO1)C(=O)CNS(=O)(=O)c1ccc(C)cc1 (stereo not drawn) | -3% | -4%[12.7 µM] | 10% | -6% | 13µM* | 6% |
